Assay results as given in PubChem BioAssay AID602179 (National Center for Advancing Translational Sciences (NCATS), 2012).
The list shows a part of the results, in another mix than the full data. The source made the active and inactive calls. Calls come from the whole dose curve; as a rule, active = well fitted inhibition curve with a large enough effect; inconclusive = small, poorly fitted or top-dose-only effect; inactive = no such curve, though single readings can be large or run the other way.

Sequences of proteins named here, by UniProt entry; tags and fusion partners are left off.
UniProt O75874, whole entry R132H: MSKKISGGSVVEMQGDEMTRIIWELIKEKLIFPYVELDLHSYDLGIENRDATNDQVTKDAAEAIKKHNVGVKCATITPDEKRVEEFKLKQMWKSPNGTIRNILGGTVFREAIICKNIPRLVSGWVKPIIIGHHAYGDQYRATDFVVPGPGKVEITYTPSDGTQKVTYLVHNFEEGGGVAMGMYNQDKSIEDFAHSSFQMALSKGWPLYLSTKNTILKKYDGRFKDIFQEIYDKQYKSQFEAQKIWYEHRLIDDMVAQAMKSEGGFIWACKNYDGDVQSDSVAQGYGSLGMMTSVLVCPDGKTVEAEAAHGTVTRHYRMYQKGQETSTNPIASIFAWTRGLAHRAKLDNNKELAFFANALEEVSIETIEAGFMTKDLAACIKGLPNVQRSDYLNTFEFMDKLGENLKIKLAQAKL

target: Isocitrate dehydrogenase [NADP] cytoplasmic (Homo sapiens) (UniProt O75874); test: qHTS for Inhibitors of mutant isocitrate dehydrogenase 1 (IDH1): qHTS; settings: IDH1-R132H enzyme, NADPH consumption, diaphorase/resazurin fluorescence; at 76.6 µM (top of the series); note: nearly all actives have a fitted effect of over 65% in size
Excerpt: Unbiased genomic sequencing for 22 glioma genomes found recurrent mutation of isocitrate dehydrogenase 1 (IDH1) on chromosome 2q33-a gene encoding the cytosolic isoform of IIDH1associated with the tricarboxylic acid cycle (TCA) that catalyzes the oxidative decarboxylation of isocitrate, yielding alpha-ketoglutarate and CO2 via NADP+ to NADPH conversion. Subsequent studies confirmed the recurrent IDH mutations in up to 70% of secondary gliomas and in 10% of AML cases. […] This in effect defines IDH1 as an oncogene, and provides an extraordinary opportunity to discover chemical probes against mutant IDH1 that may translate into much needed new therapies for glioma and AML patients. […] NIH Chemical Genomics Center [NCGC] NIH Molecular Libraries Probe Centers Network [MLPCN] MLPCN Grant: DA032129 Assay Submitter (PI): Lenny Dang, Agios Pharmaceuticals
IDH1-R132H (0.5 ug/mL) was dispensed into black, solid-bottom 1536-well plates at 3 uL/well in 20 mM Tris-HCl (pH 7.5), 150 mM NaCl, 10 mM MgCl2, 4 mM beta-ME, and 0.05% protease-free BSA. Then, 23 nL of compounds or DMSO were delivered to each well using a pin tool. A pre-read was run on the Viewlux to identify fluorescent compounds (540 nm excitation filter, 598 nm emission filter, bodipy mirror and 2 second exposure). After 30 minutes of incubation with compound, 3 uL of substrate mix were dispensed (0.016 mM NADPH, 2 mM alpha-KG, 20 mM Tris-HCl (pH 7.5), 150 mM NaCl, 10 mM MgCl2, and 0.05% protease-free BSA). Plates were spun for 1 min at 1000xg and incubated at room temperature for 80 min. Then 1.5 uL of each detection reagent component for the coupling system were added (0.12 mg/mL diaphorase and 0.072 mM resazurin, each in 20 mM Tris-HCl (pH 7.5), 150 mM NaCl, 10 mM MgCl2, and 0.05% protease-free BSA ) The protein, substrate and two detection components were maintained at 4 °C throughout the screen. Additionally, the substrate and resazurin reagents were protected from light. The plates were measured on an Envision plate reader for fluorescence signal using a 540 nm excitation filter and 590 nm emission filter with 10 flashes. 1x and 0x (no-enzyme) IDH1-R132H enzyme control were used to normalize %Activity of identified inhibitors; 0x enzyme values corresponded to 100% Activity (full inhibition), while 1x IDH1-R132H enzyme values were used to normalize 0%Activity (no inhibition). Concentration-response curves were fitted to the signals arising from the resulting fluorescence. The concentration-effect curves were then classified based on curve quality (r2), response magnitude and degree of measured activity, and compounds were subsequently categorized based on their curve class. […] Keywords: isocitrate dehydrogenase, IDH1, IDH1-R132H, MLSMR, MLPCN, NIH Roadmap, qHTS, NCGC
% is set by controls: 0 for no effect and ±100 for the full control effect.

Structure (SMILES)	activity change, negative = inhibition
c1ccc(CN2CCC(Nc3ccccc3)CC2)cc1	inactive: 2.46%
CCCN1CCC(Nc2cc(OC)cc(OC)c2)CC1	inactive: 11.2%
O=C(NCC1(N2CCOCC2)CCCCC1)c1ccccc1	inactive: -9.23%
Cc1cc(N(CCCl)CCCl)ccc1C=O	inactive: 4.67%
CN(C)C1(CNC(=O)c2cccc(C#N)c2)CCCCC1	inactive: 1.47%
CC(C)(C)OC(=O)N1CCC(N(C(=O)c2ccccc2)c2ccc(Cl)cc2)CC1	inactive: -1.12%
O=C(NCC1(N2CCOCC2)CCCCC1)c1ccc([N+](=O)[O-])cc1	inactive: -1.7%
N#Cc1ccc(C(=O)NCC2(N3CCCCC3)CCCCC2)cc1	inactive: 2.72%
O=C(NCC1(N2CCOCC2)CCCCC1)c1ccccc1[N+](=O)[O-]	inactive: 16.4%
CCOC(=O)C(CC)C1=NC(C)(C)Cc2ccccc21.O=[N+]([O-])c1cc([N+](=O)[O-])c(O)c([N+](=O)[O-])c1 (centres undefined)	inactive: 5.06%
N/C(=N\O)c1c(N)no[n+]1[O-]	inactive: -1.83%
CCOC(=O)N1CCC(Nc2ccc(C)cc2)CC1	inactive: 8.33%
O=C(OC1CN2CCC1CC2)C1c2ccccc2C=Cc2ccccc21 (centres undefined)	inactive: 1.48%
CCc1cc(C(=O)NCC2(N3CCCCC3)CCCCC2)sc1C	inactive: -11.3%
O=C(O)c1cccc(Nc2c([N+](=O)[O-])cc([N+](=O)[O-])cc2[N+](=O)[O-])c1	inactive: 16.1%
O=C(NCC1(N2CCOCC2)CCCCC1)c1cc(Br)ccc1Cl	inactive: 2.25%
COc1cc(C(=O)NCC2(N3CCOCC3)CCCCC2)cc(OC)c1C	inactive: 8.84%
COc1ccc(C(=O)NCC2(N3CCOCC3)CCCCC2)cc1OC	inactive: 0.41%
CCC(CO)(C(=O)OC1CN2CCC1CC2)c1ccccc1 (centres undefined)	inactive: -2.71%
COc1cc(C(=O)NCC2(N3CCOCC3)CCCCC2)cc(OC)c1OC	inactive: -0.752%
COc1cc(OC)cc(C(=O)NCC2(N3CCOCC3)CCCCC2)c1	inactive: 3.74%
COc1cccc(C(=O)N(c2cc(C)cc(C)c2)C2CCN(C(=O)OC(C)(C)C)CC2)c1	inactive: -6.9%
CN1CCC(Nc2ccc(Cl)cc2)CC1	inactive: -9.28%
CCOc1ncccc1C(=O)NCC1(N2CCOCC2)CCCCC1	inactive: 4.24%
CN1CCC(Nc2ccc(F)c(Cl)c2)CC1	inactive: 9.29%

Structure (SMILES)	activity change, negative = inhibition
CCCOc1ccc(C(=O)NCC2(N(C)C)CCCCC2)cc1	inactive: -3.66%
CC(C)(C)OC(=O)N1CCC(Nc2ccccc2)CC1	inactive: 6.15%
O=C(O)C1(Nc2ccccc2)CCN(Cc2ccccc2)CC1	inactive: 1.63%
Cc1ccccc1NC1(C#N)CCN(Cc2ccccc2)CC1	inactive: -7.35%
CCN1CCC(Nc2cccc(F)c2)CC1	inactive: 2.29%
CC(C)(C)c1ccc(C(=O)NCC2(N3CCOCC3)CCCCC2)cc1	inactive: 21.1%
O=C(NCC1(N2CCCCC2)CCCCC1)c1ccco1	inactive: 1.73%
Cn1c(=O)[nH]cc(N(CCCl)CCCl)c1=O	inactive: 0.542%
CN(C)c1ccc(C(=O)NCC2(N3CCCCC3)CCCCC2)cc1	inactive: -8.57%
Cc1ccccc1C(=O)NCC1(N(C)C)CCCCC1	inactive: 2.58%
COc1cc(OC)cc(C(=O)NCC2(N3CCCCC3)CCCCC2)c1	inactive: 3.72%
CC(=O)N(c1ccccc1)C1CCNCC1	inactive: -16.3%
CN(C)C1(CNC(=O)c2ccc(C(C)(C)C)cc2)CCCCC1	inactive: 0%
Cc1ccc(NC2(C#N)CCN(Cc3ccccc3)CC2)cc1	inactive: 12.8%
Cc1ccc(C(=O)NCC2(N3CCCCC3)CCCCC2)o1	inactive: 1.14%
Cc1ccc(Nc2c([N+](=O)[O-])cc([N+](=O)[O-])cc2[N+](=O)[O-])cc1	inactive: -1.89%
Fc1ccccc1NC1CCN(Cc2ccccc2)CC1	inactive: -0.0294%
COc1cc(C(=O)NCC2(N(C)C)CCCCC2)ccc1OC(F)F	inactive: -0.631%
CCOC(=O)N1CCC(Nc2cccc(C)c2)CC1	inactive: 0.113%
CCOc1ccc(C)cc1CN(CCCl)CCCl	inactive: 0.909%
O=C(NCC1(N2CCOCC2)CCCCC1)c1ccc(Cl)cc1	inactive: 4.97%
O=C1CCN(Cc2ccccc2)CC1	inactive: -11.3%
O=C(NCC1(N2CCCCC2)CCCCC1)c1ccc(F)cc1	inactive: -12%
O=P1(N(CCCl)CCCl)SCCCS1	inactive: 1.65%
